Assay results taken from patent publication US9642920B2, “Therapeutic agent delivery system and method” (Case Western Reserve University, priority 2009, dated 2017).

Tested on: U-87 MG cells
Conditions: mouse, in vivo

## dextran
  DOX extracted from polymer removed from euthanized mice: no traceable DOX
